The text below walks through data of patent US20240393319A1, “FLUORESCENT SENSORS AND METHODS OF MAKING AND USING” (Howard Hughes Medical Institute, priority 2023, published 2024).

Protein sequences, listed by entry. Tags and fused reporters are not part of them.
UniProt P07678, whole entry, stated change not applied: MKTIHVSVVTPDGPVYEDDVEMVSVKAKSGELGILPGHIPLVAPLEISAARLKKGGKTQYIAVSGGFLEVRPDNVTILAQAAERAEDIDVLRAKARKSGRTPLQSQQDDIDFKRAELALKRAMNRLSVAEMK

Assay [1] addresses T1, iATPSnFR2.A95A.A119L.HaloTag-JFX650 (L1-VLVG, L2-ICV); cpSFGFP inserted in epsilon subunit of Bacillus subtilis PS3 F0-F1 ATPase; mutations A95A, A119L; SEQ ID N (Bacillus sp. PS3, UniProt P07678).
T1 construct: E. coli, Ni-NTA purified
Put plainly: ATP/nucleotide titration, binding curve fits. From the text: (1A) Artistic rendering of iATPSnFR2.HaloTag made with PyMol. The N-terminal fragment (residues 1-109) of the epsilon subunit of ATPase (orange, based on 2E5Y.PDB) is fused to cpSFGFP (green). The C-terminus of cpSFGFP is fused to the residual ATP-binding helix (residues 110-129) of the epsilon subunit (pink), which itself is fused to HaloTag (cyan). “Linkers” are shown as sticks in yellow. ATP is shown as sticks in black. HaloTag fluorophore is shown as sticks in red. (1B) iATPSnFR2.HaloTag-JFX650 affinity variants titrated with ATP. Grey, S29W.A95K (4 μM); orange, A95K (16 μM), yellow, A95A.A119L (530 μM). (1C-1E) Ratio of green (iATPSnFR2) to red (HaloTag-JFX650) fluorescence in fibroblasts transfected with three affinity variants of iATPSnFR2-HaloTag. Grey, S29W.A95K (high affinity); orange, A95K (medium affinity); yellow, A95A.A119L (low affinity). Cells were incubated for 21 minutes in buffer containing 10 mM glucose, and then switched to buffer containing 10 mM 2-deoxyglucose. (1C) Rho° cells. (1D) Parental LMTK cell line. (1E) Parental cell line treated with both 2-deoxyglucose and oligomycin.
Three variants of iATPSnFR2.HaloTag-JFX650 titrated with ATP (black) and ADP (grey), head-to-head. S29W.A95K (left); A95K (center); A95A.A119L (right). Binding curve fits, in μM, for ATP and ADP are S29W.A95K: 4 μM, 400 μM. A95K: 16 μM, 780 μM. A95A.A119L: 530 μM, 5300 μM.
Three variants of iATPSnFR2.HaloTag-JFX650 titrated with ATP and other NTPs, head-to-head. S29W.A95K (left); A95K (center); A95A.A119L (right). ATP (black), CTP (cyan), GTP (grey), TTP (purple). Binding curve fits, in μM, for ATP, CTP, GTP are S29W.A95K: 20 μM, 50 μM, 430 μM. A95K: 30 μM, 100 μM, 1500 μM. A95A.A119L: 750 µM, ˜10 mM, ˜10 mM.
Purified protein was mixed with 1.1 molar equivalents of JFX650 HaloTag Ligand and incubated at room temperature for 1 hour and then at 4° C. overnight. Excess HaloTag Ligand was removed by gel filtration on a PD-10 column (GE Life Sciences) and re-concentrated by ultrafiltration. […]

The target in assay [2] is T2, iATPSnFR2 (L1-VLVG, L2-ICV, A95A, A119L; cpSFGFP inserted in epsilon subunit of Bacillus subtilis PS3 F0-F1 ATPase; SEQ ID NO: 1 / SEQ ID NO: 13) (Bacillus sp. PS3, UniProt P07678).
T2 construct: QD to VL at junction, L1-VLVG, L2-ICV; E. coli BL21(DE3)pLysS, Ni-NTA; HaloTag-JFX650 fusion possible
Put plainly: Fluorescence response to ATP. Particulars: 37° C. and 25° C. The assay is classed as biochemical. Here is the method:
ATP titration of iATPSnFR2.A95A.A119L variant at 25° C. (grey) and 37° C. (black). Error bars are s.d. of three technical replicates. Fluorescence was measured in a Cytation 5 plate reader, which has relatively rapid heating.
The sensor shown below was made from (1) insertion of circularly permuted SuperFolder GFP (cpSFGFP; italicized portion of sequence below) into the ATP-binding epsilon subunit of the ATPase from Bacillus subtilis PS 3 (non-italicized portion of sequence below) between amino acids 109 and 110; (2) subsequent mutation of the residues forming the junction between the first half of the APT-binding subunit of the ATPase and the cpSFGFP to VL VG (i.e., the QD residues of the ATP-binding unit were changed to VL, and the SH residues of the cpSFGFP were changed to VG); (3) subsequent addition of residues ICV between the end of the cpSFGFP and residue 110 of the ATP-binding unit; and (4) mutating an amino acid proximal to the ATP binding site, A119, to L. Mutation sites are shown in the sequence below with bolding and double underlining.
All in vitro assays were performed in Mammalian Cell Imaging Buffer unless otherwise noted. iATPSnFR2 equilibrium measurements (affinity, specificity, pH) were performed with 0.2 μM protein in a Tecan Spark fluorimeter with 20 nm bandpass windows and excitation at 485 nm and emission at 535 nm.

Read-outs that look alike come from different tables or passages of the source.

For the compound `Nc1ncnc2c1ncn2[C@@H]1O[C@H](COP(=O)(O)OP(=O)(O)OP(=O)(O)O)[C@@H](O)[C@H]1O` [ATP], the Kd was found to be 530 µM in assay [1] (read-out: affinity for ATP (binding curve fit), FIG. 1B, 5A, 5D); 750 µM in assay [1] (read-out: affinity for ATP (binding curve fit, NTP titration), head-to-head with other NTPs, FIG. 5E); 530 µM in assay [1] (read-out: affinity for ATP, FIG. 1B and 5A). The “ΔF/F and Kd for ATP, temperature dependence” value in assay [2] was “almost identical ΔF/F and Kd for ATP at 37 °C and 25 °C”.
